# Reference: PubChem BioAssay AID504692 (The Scripps Research Institute Molecular Screening Center, 2011)
# Chains of the proteins cited; added tags and fusions are not shown.
# UniProt P47898, whole entry: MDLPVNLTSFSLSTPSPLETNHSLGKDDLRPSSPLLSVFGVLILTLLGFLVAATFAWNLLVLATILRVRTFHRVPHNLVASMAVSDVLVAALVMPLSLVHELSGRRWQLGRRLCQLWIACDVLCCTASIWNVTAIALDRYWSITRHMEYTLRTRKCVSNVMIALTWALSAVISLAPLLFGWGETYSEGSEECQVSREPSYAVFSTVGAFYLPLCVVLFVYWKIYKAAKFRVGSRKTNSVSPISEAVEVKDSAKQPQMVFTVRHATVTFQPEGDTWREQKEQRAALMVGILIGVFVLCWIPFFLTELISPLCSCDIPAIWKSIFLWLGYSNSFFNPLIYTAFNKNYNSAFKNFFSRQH
# This is a selection; strong and weak results do not stand in their true shares. The source made the active and inactive calls. No stated cut-off is given here; in the data, active means activation mostly above about 9.5% (no sharp cut-off); inactive means mostly below about 7.6%.
# Molecular target: 5-hydroxytryptamine receptor 5A (Homo sapiens) (UniProt P47898)
# Assay: HTR5A agonists in luminescence cell assay, primary screen, counter-screen for OPRM1-OPRD1 heterodimer agonist project, full-deck HTS (AID 504692);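 further: 0% = cells with vehicle only and 100% = reference agonist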
# Details: cell-based, at 9.3 µM, active compounds read high
row,SMILES,activation
1,CCOc1ncccc1C(=O)NCC1(N2CCOCC2)CCCCC1,inactive: 4.21%
2,CN1CCC(Nc2ccc(F)c(Cl)c2)CC1,inactive: 3.58%
3,CC(C)(C)OC(=O)N1CCC(Nc2ccccc2)CC1,inactive: 1.8%
4,O=C(O)C1(Nc2ccccc2)CCN(Cc2ccccc2)CC1,inactive: 1.14%
5,CCCOc1ccc(C(=O)NCC2(N(C)C)CCCCC2)cc1,inactive: 2.51%
6,COc1cccc(C(=O)N(c2cc(C)cc(C)c2)C2CCN(C(=O)OC(C)(C)C)CC2)c1,inactive: 1.21%
7,COc1cc(OC)cc(C(=O)NCC2(N3CCOCC3)CCCCC2)c1,inactive: -1.37%
8,CCC(CO)(C(=O)OC1CN2CCC1CC2)c1ccccc1 (centres undefined),inactive: 1.41%
9,CN1CCC(Nc2ccc(Cl)cc2)CC1,inactive: 4.24%
10,CC(=O)N(c1ccccc1)C1CCNCC1,inactive: -1.78%
11,COc1cc(OC)cc(C(=O)NCC2(N3CCCCC3)CCCCC2)c1,inactive: -4.21%
12,Cc1ccc(C(=O)NCC2(N3CCCCC3)CCCCC2)o1,inactive: -1.23%
13,Fc1ccccc1NC1CCN(Cc2ccccc2)CC1,inactive: -4.79%
14,Cc1ccc(NC2(C#N)CCN(Cc3ccccc3)CC2)cc1,inactive: -1.03%
15,Cc1ccccc1NC1(C#N)CCN(Cc2ccccc2)CC1,inactive: 1.35%
16,CCN1CCC(Nc2cccc(F)c2)CC1,inactive: 6.4%
17,O=C(NCC1(N2CCCCC2)CCCCC1)c1ccco1,inactive: 6.31%
18,CN(C)c1ccc(C(=O)NCC2(N3CCCCC3)CCCCC2)cc1,inactive: -3.18%
19,Cn1c(=O)[nH]cc(N(CCCl)CCCl)c1=O,inactive: 1.45%
20,N#Cc1ccc(C(=O)NCC2(N3CCCCC3)CCCCC2)cc1,inactive: -2.8%
21,CC(C)(C)OC(=O)N1CCC(N(C(=O)c2ccccc2)c2ccc(Cl)cc2)CC1,inactive: 3.58%
22,CN(C)C1(CNC(=O)c2cccc(C#N)c2)CCCCC1,inactive: -5.59%
23,c1ccc(CN2CCC(Nc3ccccc3)CC2)cc1,inactive: -2.24%
24,Cc1cc(N(CCCl)CCCl)ccc1C=O,inactive: 1.81%
25,CCCN1CCC(Nc2cc(OC)cc(OC)c2)CC1,inactive: 4.66%

row,SMILES,activation
1,COc1cc(C(=O)NCC2(N3CCOCC3)CCCCC2)cc(OC)c1C,inactive: 8.34%
2,O=C(NCC1(N2CCOCC2)CCCCC1)c1cc(Br)ccc1Cl,inactive: -7.08%
3,COc1ccc(C(=O)NCC2(N3CCOCC3)CCCCC2)cc1OC,inactive: 5.46%
4,CCOC(=O)N1CCC(Nc2ccc(C)cc2)CC1,inactive: 1.2%
5,N/C(=N\O)c1c(N)no[n+]1[O-],inactive: 2.62%
6,O=C(OC1CN2CCC1CC2)C1c2ccccc2C=Cc2ccccc21 (centres undefined),inactive: -0.05%
7,CC(C)c1ccc(NC2CCN(C(=O)OC(C)(C)C)CC2)cc1,inactive: 4.34%
8,COc1ccc(CN(CCCl)CCCl)cc1Cl,inactive: 3.25%
9,CN(C)c1cccc(C(=O)NCC2(N3CCCCC3)CCCCC2)c1,inactive: -1.97%
10,COc1cc(OC)c(C(=O)NCC2(N(C)C)CCCCC2)cc1OC,inactive: -2.87%
11,O=C(NCC1(N2CCOCC2)CCCCC1)c1cc(F)c(F)cc1Cl,inactive: 4.17%
12,CN1CCC(Nc2cccc(F)c2)CC1,inactive: -2.19%
13,O=C(NCC1(N2CCCCC2)CCCCC1)c1cncc(Br)c1,inactive: 0.96%
14,CCCOc1ccc(C(=O)NCC2(N(C)C)CCCCC2)cc1OC,inactive: 2.77%
15,O=C(NCC1(N2CCCCC2)CCCCC1)c1ccc(OC(F)F)cc1,inactive: 1.25%
16,CCN1CCC(Nc2ccc(Cl)cc2)CC1,inactive: -2.67%
17,N#CC1(Nc2ccccc2)CCN(CCc2ccccc2)CC1,inactive: -3.3%
18,CSc1ccc(C(=O)NCC2(N3CCOCC3)CCCCC2)cc1,inactive: 0.92%
19,O=C(NCC1(N2CCCCC2)CCCCC1)c1cccc([N+](=O)[O-])c1,inactive: 6.97%
20,O=C(NCC1(N2CCCCC2)CCCCC1)c1cccc(C(F)(F)F)c1,inactive: 2.94%
21,O=C(NCC1(N2CCOCC2)CCCCC1)c1cc(=O)[nH]c2ccccc12,inactive: -1.79%
22,COc1cc(C(=O)NCC2(N3CCCCC3)CCCCC2)ccc1OC(F)F,inactive: -3.68%
23,CC(C)c1ccc(C(=O)NCC2(N3CCOCC3)CCCCC2)cc1,inactive: 3.98%
24,COc1ccc(NC2CCN(C(=O)OC(C)(C)C)CC2)cc1,inactive: -0.46%
25,CN1CCN(CCOC(=O)C(O)(c2ccccc2)c2ccccc2)CC1,inactive: -0.47%

row,SMILES,activation
1,O=C1CCN(Cc2ccccc2)CC1,inactive: 3.48%
2,CCOc1ccc(C)cc1CN(CCCl)CCCl,inactive: -1.59%
3,CCCCOc1ccc(C(=O)NCC2(N3CCOCC3)CCCCC2)cc1,inactive: 0.8%
4,O=P1(N(CCCl)CCCl)SCCCS1,inactive: 3.26%
5,O=C(NCC1(N2CCCCC2)CCCCC1)c1ccc(F)cc1,inactive: -7.24%
6,CCOC(=O)N1CCC(Nc2ccc(F)cc2)CC1,inactive: 1.26%
7,COc1ccc(NC2CCN(CCc3ccccc3)CC2)c(OC)c1,inactive: 5.56%
8,CCOC(=O)N1CCC(Nc2cccc(C)c2)CC1,inactive: -0.2%
9,COc1cc(C(=O)NCC2(N(C)C)CCCCC2)ccc1OC(F)F,inactive: 1.48%
10,COc1ccc(C(=O)NCC2(N3CCCCC3)CCCCC2)cc1,inactive: -5.58%
11,CC(C)(C)OC(=O)N1CCC(N(C(=O)c2ccccc2)c2ccc(F)cc2)CC1,inactive: 4.12%
12,COc1ccc(C(=O)NCC2(N3CCCCC3)CCCCC2)c(OC)c1OC,inactive: -1.41%
13,O=C(NCC1(N2CCCCC2)CCCCC1)c1ccc(=O)[nH]c1,inactive: 1.52%
14,O=C(NCC1(N2CCCCC2)CCCCC1)c1cccs1,inactive: 2.8%
15,CSc1ccccc1C(=O)NCC1(N2CCCCC2)CCCCC1,inactive: -1.24%
16,Cc1cccc(NC2(C#N)CCN(Cc3ccccc3)CC2)c1,inactive: -0.25%
17,O=C(NCC1(N2CCCCC2)CCCCC1)c1ccc(Cl)nc1,inactive: -0.98%
18,Cc1cc(C)cc(N(C(=O)c2ccccc2)C2CCN(C(=O)OC(C)(C)C)CC2)c1,inactive: -3.2%
19,O=C(NCC1(N2CCOCC2)CCCCC1)c1cc2ccccc2o1,inactive: -7.55%
20,N#CC1(Nc2ccccc2)CCN(Cc2ccccc2)CC1,inactive: 3.75%
21,O=C(NCC1(N2CCCCC2)CCCCC1)c1ccc(Cl)s1,inactive: -0.88%
22,O=C(OC1CN2CCC1CC2)C1c2ccccc2Oc2ccccc21 (centres undefined),inactive: -3.18%
23,COc1ccc(Cl)cc1C(=O)NCC1(N2CCOCC2)CCCCC1,inactive: 2.73%
24,CCOC(=O)N1CCC(Nc2ccc(OC)cc2)CC1,inactive: -1.73%
